Laboratory results taken from paper PMC4609182.

Protein sequences, listed by entry. Tags and fused reporters are not part of them. Lines headed by an entry give the natural chain unless they say otherwise; changes in a name come on top.
UniProt Q9JK66: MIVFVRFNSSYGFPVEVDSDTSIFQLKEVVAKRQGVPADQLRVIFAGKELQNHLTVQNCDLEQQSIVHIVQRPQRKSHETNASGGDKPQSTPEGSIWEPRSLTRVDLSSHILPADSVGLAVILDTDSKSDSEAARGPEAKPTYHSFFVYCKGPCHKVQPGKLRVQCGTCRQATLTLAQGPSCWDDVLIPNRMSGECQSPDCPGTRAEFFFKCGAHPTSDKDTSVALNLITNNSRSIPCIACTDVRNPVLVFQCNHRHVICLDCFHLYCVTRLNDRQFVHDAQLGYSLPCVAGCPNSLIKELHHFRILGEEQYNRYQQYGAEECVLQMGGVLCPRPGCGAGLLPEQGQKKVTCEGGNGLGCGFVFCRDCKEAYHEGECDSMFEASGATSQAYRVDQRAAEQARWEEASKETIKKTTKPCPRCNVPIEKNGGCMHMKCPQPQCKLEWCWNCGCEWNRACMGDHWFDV

Molecular target: Phosphorylated Parkin (phospho-Ser65 in the Ubl domain) (rat) (UniProt Q9JK66)
Test: ITC; Parkin constructs titrated with UbcH7; 20°C; 50 mM Tris–HCl pH 7.4, 150 mM NaCl, 1 mM TCEP; stoichiometry fixed to 1:1

- Kd: 161 µM
Substance: UbcH7 (E2 ubiquitin-conjugating enzyme) (from UniProt P68036 1-154)
